Data as given in ChEMBL document CHEMBL3745677, “Discovery of 6-(4-{[5-Cyclopropyl-3-(2,6-dichlorophenyl)isoxazol-4-yl]methoxy}piperidin-1-yl)-1-methyl-1H-indole-3-carboxylic Acid: A Novel FXR Agonist for the Treatment of Dyslipidemia” (J Med Chem, 2015).

Legend:
[1] = target: T1, Bile acid receptor (Homo sapiens) (UniProt Q96RI1); assay: Agonist activity at recombinant His-tagged human FXR ligand binding domain assessed as SRC-1 coactivator recruitment after 4 hrs by luminescence analysis relative to GW4064
T1 sequence (whole entry): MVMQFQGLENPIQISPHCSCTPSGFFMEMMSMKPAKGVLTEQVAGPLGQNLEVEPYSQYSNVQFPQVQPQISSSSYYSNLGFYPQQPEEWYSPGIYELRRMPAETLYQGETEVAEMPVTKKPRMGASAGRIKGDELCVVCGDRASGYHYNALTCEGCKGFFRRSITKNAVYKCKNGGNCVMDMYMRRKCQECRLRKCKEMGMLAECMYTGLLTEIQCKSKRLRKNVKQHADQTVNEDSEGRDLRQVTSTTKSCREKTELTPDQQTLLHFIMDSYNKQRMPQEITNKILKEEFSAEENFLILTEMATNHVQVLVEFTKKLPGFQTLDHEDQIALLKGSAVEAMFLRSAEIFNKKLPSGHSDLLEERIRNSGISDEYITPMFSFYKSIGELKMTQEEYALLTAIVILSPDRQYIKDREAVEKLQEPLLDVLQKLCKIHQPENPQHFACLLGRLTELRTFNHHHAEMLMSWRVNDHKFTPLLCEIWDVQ

[2] = target: T1, Bile acid receptor (Homo sapiens); assay: Agonist activity at human FXR transfected in HEK293 cells assessed as transcriptional activity by luciferase reporter gene assay relative to GW4064; assay type: cell-based

## Cn1cc(C(=O)O)c2ccc(N3CCC(OCc4c(-c5c(Cl)cccc5Cl)noc4C4CC4)CC3)cc21 [TERN-101]
[1]
  Efficacy: 93%
[2]
  Efficacy: 41%
